# Ab-14 light chain CDR variants: yeast mating affinities

From the AlphaSeq antibody data of Li et al. 2023 (doi:10.1038/s41467-023-39022-2), copy in the FLAb collection.

Binding partner: SARS-CoV-2 spike HR2 peptide, sequence PDVDLGDISGINAS.

Ab-14 is the parent antibody, in scFv form: VH, then a 15-residue (Gly4Ser)3 linker, then VL. The heavy chain is unchanged in all variants.
VH: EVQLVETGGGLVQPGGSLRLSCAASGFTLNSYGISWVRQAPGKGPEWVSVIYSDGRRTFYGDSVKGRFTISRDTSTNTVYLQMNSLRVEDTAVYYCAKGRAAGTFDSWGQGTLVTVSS
VL: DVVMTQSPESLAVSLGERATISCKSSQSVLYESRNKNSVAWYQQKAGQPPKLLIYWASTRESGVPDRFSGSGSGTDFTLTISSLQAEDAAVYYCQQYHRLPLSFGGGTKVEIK

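The parent was found by panning a naive human phage display library on the peptide. The variants were designed computationally from a first round of random CDR variants and then made and measured. Their group label is 14L_GP_Gen (GP: Gaussian process model; Gen: genetic algorithm; a sequence that several methods proposed may carry one label only). The assay is AlphaSeq: two haploid yeast populations carry antibody and antigen on their surface. Mating (16 h, 30 °C) was followed by selection of diploids and sequencing of their barcodes. Scores were corrected for input abundance and mapped to Kd with protein pairs of known affinity run in the same pool. The assay was run in six technical replicates.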

The parent's light chain CDRs are KSSQSVLYESRNKNSVA, WASTRES, QQYHRLPLS; each variant's own CDRs replace them letter for letter. Scale: log10 of Kd in nM, estimated from mating counts; low values are strong binders. The authors averaged sequences with at least three values out of six and counted those with two or fewer as poor binders. The range of this assay differs from that of the first round, and the authors advise against merging the two. Background: pairings of all light chain designs with three empty control strains gave a value in 4% of cases (median 2.64, 5th percentile 1.59). Values in that range, when seen in few replicates, are hard to tell from nonspecific mating. Also given: how often the same scFv was detected with the empty control strains, with their mean in brackets.

{"CDR-L1": "KLMQSWLYESRNKNSVA", "CDR-L2": "NASTRES", "CDR-L3": "QQYHRLPLS", "log10 Kd (nM) by replicate": "0.53 / 0.15 / 0.43 / 0.37 / 0.46 / 0.41", "control signals": "0/18"}
{"CDR-L1": "KLYQSVLYESRNKNAVA", "CDR-L2": "NASQRES", "CDR-L3": "QQYHRLPLS", "log10 Kd (nM) by replicate": "-0.15 / -0.34 / -0.17 / -0.34 / -0.22 / -0.23", "control signals": "1/18 (2.93)"}
{"CDR-L1": "KLSQSVLYESRNKNSVA", "CDR-L2": "NASTRES", "CDR-L3": "QQYHRLPLV", "log10 Kd (nM) by replicate": "-0.26 / -0.42 / -0.31 / -0.52 / -0.46 / -0.17", "control signals": "0/18"}
{"CDR-L1": "KLSQSVDYEDRNKNSVA", "CDR-L2": "NASTRES", "CDR-L3": "QQYHRLPLS", "log10 Kd (nM) by replicate": "0.14 / -0.07 / 0.05 / -0.11 / -0.08 / -0.05", "control signals": "2/18 (3.46)"}
{"CDR-L1": "KSSQSELYESRNKNSVA", "CDR-L2": "NASTRMS", "CDR-L3": "QQYHRLPLS", "log10 Kd (nM) by replicate": "0.03 / -0.15 / 0.08 / 0.05 / -0.16 / -0.37", "control signals": "0/18"}
{"CDR-L1": "HLSQSVLYEERNKNSVA", "CDR-L2": "NASTRES", "CDR-L3": "QQYHRLPLS", "log10 Kd (nM) by replicate": "0.19 / -0.06 / -0.08 / -0.28 / -0.13 / 0.03", "control signals": "1/18 (1.68)"}
{"CDR-L1": "FLSQSMLYESRNKNSVA", "CDR-L2": "NASTRES", "CDR-L3": "QQYHRLPLS", "log10 Kd (nM) by replicate": "0.44 / 0.33 / 0.21 / -0.03 / 0.03 / 0.41", "control signals": "0/18"}
{"CDR-L1": "KLWQSVLYESRNKNSVA", "CDR-L2": "GASTRES", "CDR-L3": "QQYHRLPLS", "log10 Kd (nM) by replicate": "0.33 / 0.17 / -0.08 / 0.03 / 0.26 / 0.21", "control signals": "0/18"}
{"CDR-L1": "KLSGSWLYESRNKNAVA", "CDR-L2": "NASTRES", "CDR-L3": "QQYHRLPLS", "log10 Kd (nM) by replicate": "0.47 / -0.14 / -0.04 / -0.05 / 0.29 / 0.35", "control signals": "1/18 (2.61)"}
{"CDR-L1": "KLSQSDLYESRNKNSVA", "CDR-L2": "QASTRES", "CDR-L3": "QQYHRLPLS", "log10 Kd (nM) by replicate": "-0.18 / -0.53 / -0.57 / -0.31 / -0.26 / -0.15", "control signals": "1/18 (2.53)"}
{"CDR-L1": "ILSQSWLYESRNKNSVA", "CDR-L2": "NASQRES", "CDR-L3": "QQYHRLPLS", "log10 Kd (nM) by replicate": "0.02 / -0.27 / -0.29 / -0.26 / -0.21 / 0.06", "control signals": "2/18 (3.28)"}
{"CDR-L1": "KLSQSVLYMSRNKNSVA", "CDR-L2": "EASTRES", "CDR-L3": "QQYHRLPLS", "log10 Kd (nM) by replicate": "-0.25 / -0.40 / -0.52 / -0.44 / -0.44 / -0.19", "control signals": "0/18"}
{"CDR-L1": "KVSQSNLYESRNKNAVA", "CDR-L2": "NASTRES", "CDR-L3": "QQYHRLPLS", "log10 Kd (nM) by replicate": "-0.11 / -0.27 / -0.37 / -0.45 / -0.22 / -0.37", "control signals": "0/18"}
{"CDR-L1": "KLSQSQLYESRNKNSVA", "CDR-L2": "NASTRLE", "CDR-L3": "QQYHRLPLS", "log10 Kd (nM) by replicate": "-0.02 / -0.03 / -0.07 / -0.20 / -0.24 / -0.04", "control signals": "0/18"}
{"CDR-L1": "KVQQSVPYESRNKNSVA", "CDR-L2": "SASTRES", "CDR-L3": "QQYHRLPLS", "log10 Kd (nM) by replicate": "0.27 / 0.41 / 0.13 / 0.16 / 0.19 / 0.25", "control signals": "1/18 (2.32)"}
{"CDR-L1": "KVSWSWLYESRNKNSVA", "CDR-L2": "NASQRES", "CDR-L3": "QQYHRLPLS", "log10 Kd (nM) by replicate": "0.18 / 0.11 / 0.29 / -0.40 / 0.24 / 0.24", "control signals": "0/18"}
{"CDR-L1": "KVSQSVLYEDRNKNSVA", "CDR-L2": "NGSTRES", "CDR-L3": "QQYHRLPLS", "log10 Kd (nM) by replicate": "0.64 / 0.48 / 0.20 / 0.40 / 0.31 / 0.42", "control signals": "1/18 (3.70)"}
{"CDR-L1": "KLSQSDLYESRNKNSVA", "CDR-L2": "EASYRES", "CDR-L3": "QQYHRLPLS", "log10 Kd (nM) by replicate": "-0.05 / -0.11 / -0.09 / -0.17 / -0.21 / -0.19", "control signals": "0/18"}
{"CDR-L1": "KVSQSQLYESRNKNSVA", "CDR-L2": "NASTRES", "CDR-L3": "QSYHRLPLS", "log10 Kd (nM) by replicate": "-0.17 / -0.23 / -0.33 / -0.52 / -0.41 / -0.24", "control signals": "0/18"}
{"CDR-L1": "KVQQSVLYESRNKNSVA", "CDR-L2": "QASTRES", "CDR-L3": "QQYHRLPLS", "log10 Kd (nM) by replicate": "0.06 / -0.01 / -0.01 / -0.31 / -0.20 / -0.09", "control signals": "2/18 (2.73)"}
{"CDR-L1": "KLSQSMLYESRNKNSVA", "CDR-L2": "NASTRCS", "CDR-L3": "QQYHRLPLS", "log10 Kd (nM) by replicate": "0.14 / -0.01 / 0.07 / -0.06 / -0.06 / 0.32", "control signals": "2/18 (2.60)"}
{"CDR-L1": "KLSQSVLYESRNKNSVA", "CDR-L2": "NASQREM", "CDR-L3": "QQYHRLPLS", "log10 Kd (nM) by replicate": "-0.30 / -0.38 / -0.34 / -0.33 / -0.37 / -0.45", "control signals": "4/18 (3.03)"}
{"CDR-L1": "KLSQSVMMESRNKNSVA", "CDR-L2": "DASTRES", "CDR-L3": "QQYHRLPLS", "log10 Kd (nM) by replicate": "-0.40 / -0.54 / -0.61 / -0.58 / -0.52 / -0.46", "control signals": "4/18 (2.40)"}
{"CDR-L1": "KLSQSVLYESRMKNSVA", "CDR-L2": "NASTRES", "CDR-L3": "QDYHRLPLS", "log10 Kd (nM) by replicate": "0.37 / 0.22 / 0.17 / 0.13 / 0.18 / 0.22", "control signals": "2/18 (2.94)"}
{"CDR-L1": "KLSQSVLYESRNKNSVA", "CDR-L2": "NASTRVS", "CDR-L3": "QQYHRLPLS", "log10 Kd (nM) by replicate": "0.18 / 0.20 / -0.03 / 0.29 / 0.22 / 0.30", "control signals": "1/18 (2.37)"}
{"CDR-L1": "KVSQSELYESRNKNAVA", "CDR-L2": "EASQRES", "CDR-L3": "QQYHRLPLS", "log10 Kd (nM) by replicate": "0.14 / 0.06 / 0.21 / 0.21 / 0.22 / 0.17", "control signals": "1/18 (2.75)"}
{"CDR-L1": "KSSQSVLYESRNKNSVA", "CDR-L2": "EASQRES", "CDR-L3": "QQYHRLPLS", "log10 Kd (nM) by replicate": "1.90 / 1.00 / 0.79 / 1.50 / 0.55 / 1.08", "control signals": "1/18 (2.45)"}
{"CDR-L1": "KLQQSWLYESRNKNSVA", "CDR-L2": "NASQRES", "CDR-L3": "QQYHRLPLS", "log10 Kd (nM) by replicate": "-0.19 / -0.32 / -0.32 / -0.30 / -0.44 / -0.29", "control signals": "2/18 (3.06)"}